Protein sequences, listed by entry. Tags and fused reporters are not part of them. Lines headed by an entry give the natural chain unless they say otherwise; changes in a name come on top.
UniProt Q9BUB5: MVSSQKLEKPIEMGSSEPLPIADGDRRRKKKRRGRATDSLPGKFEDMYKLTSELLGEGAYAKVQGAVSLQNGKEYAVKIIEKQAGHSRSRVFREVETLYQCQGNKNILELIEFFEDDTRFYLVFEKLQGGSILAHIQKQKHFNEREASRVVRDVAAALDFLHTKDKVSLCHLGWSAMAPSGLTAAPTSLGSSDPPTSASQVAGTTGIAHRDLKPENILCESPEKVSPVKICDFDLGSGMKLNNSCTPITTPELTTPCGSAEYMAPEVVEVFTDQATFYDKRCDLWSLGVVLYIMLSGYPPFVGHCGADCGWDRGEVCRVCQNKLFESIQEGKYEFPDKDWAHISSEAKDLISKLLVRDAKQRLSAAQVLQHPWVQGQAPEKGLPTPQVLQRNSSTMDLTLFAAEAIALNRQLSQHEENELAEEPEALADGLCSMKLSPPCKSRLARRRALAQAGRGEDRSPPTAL

In ChEMBL document CHEMBL5728147, “Substituted aromatic n-heterocyclic compounds as inhibitors of mitogen-activated protein kinase interacting kinase 1 (MNK1) and 2 (MNK2)” (2020):

Biological target: MAP kinase-interacting serine/threonine-protein kinase 1 (Homo sapiens, UniProt Q9BUB5)
Experiment: Inhibition Assay: The synthesized compounds then were tested for inhibition of the kinase activity (IC50) of Mnk1 and/or Mnk2 using the ADP monitoring assay for kinases described in Zegzouti, H.; Zdanovskaia, M.; Hsiao, K.; Goueli, S. A., ADP-Glo: A Bioluminescent and homogeneous ADP monitoring assay for kinases.

In the case of N#Cc1cnc(-n2cnc3ccccc32)nc1OC1CCOCC1, the IC50 is reported as > 10 µM.
